## AlphaSeq binding of Ab-14 heavy chain variants to a spike HR2 peptide

The measurements come from Li et al. 2023 (doi:10.1038/s41467-023-39022-2) through the FLAb antibody collection.

The target is the same throughout: PDVDLGDISGINAS, from the HR2 region of SARS-CoV-2 spike.

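The starting antibody came from a phage panning campaign against this peptide. Designed CDR sequences, proposed from the first random library and measured here. Their group label is 14H_En_Gen (En: ensemble of fine-tuned language models; Gen: genetic algorithm). The assay is AlphaSeq: two haploid yeast populations carry antibody and antigen on their surface. Binding brings cells together so that they mate, and sequencing counts the barcode pairs among the diploids. The ratio of observed to expected reads was calibrated, replicate by replicate, on BCL2-family standards whose Kd was known from biolayer interferometry. The assay was run in six technical replicates.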

Each scFv is VH, three GGGGS repeats, VL, as in the parent Ab-14, and differs from it in the CDRs of the heavy chain only.
VH: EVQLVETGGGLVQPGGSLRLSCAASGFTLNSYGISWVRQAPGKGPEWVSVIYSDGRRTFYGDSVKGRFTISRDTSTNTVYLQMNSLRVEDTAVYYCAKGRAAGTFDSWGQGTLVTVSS
VL: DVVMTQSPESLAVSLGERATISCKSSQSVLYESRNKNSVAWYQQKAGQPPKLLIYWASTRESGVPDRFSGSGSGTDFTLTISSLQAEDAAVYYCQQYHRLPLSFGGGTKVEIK

The parent's heavy chain CDRs are GFTLNSYGIS, VIYSDGRRTFYGDSVK, GRAAGTFDS; each variant's own CDRs replace them letter for letter.
Scale: log10 of Kd in nM, estimated from mating counts; low values are strong binders.
The mean shown is taken over the replicates in which the pair was detected.
"n.d." means that the variant was in the library but no mating with the target was seen in that replicate; the authors take this as a sign of poor binding, and no number exists.
In the paper, a design with two or fewer of six values counts as a poor binder.
Of ten entries with the parent sequence, four were seen in most replicates (averages 0.34 to 2.37), three in one and three in none, so single entries are noisy.
As a blank, each scFv also met three strains without target: over all heavy chain designs, 1% of these pairings were detected, typically at 2.08 and seldom below 0.84. For each scFv, signals with the empty controls are counted beside the result, with their mean in brackets.
A sequence measured in both rounds can read differently, since the two assays cover different ranges.

| CDR-H1 | CDR-H2 | CDR-H3 | log10 Kd (nM) by replicate | log10 Kd (nM), mean | empty controls |
|---|---|---|---|---|---|
| GFDLDEYGIS | VIYADGVRTAYADSVK | GQNAGTFDI | -0.24 / -0.76 / -0.48 / -0.43 / -0.44 / -0.42 | -0.46 | 0/18 |
| GFDLNEYGIS | VIYADGMRTAYSDDVK | GENAGTFDL | -0.31 / -0.45 / -0.33 / -0.61 / -0.27 / -0.53 | -0.42 | 0/18 |
| GFDLNEYGIS | VIYADGMRTFYADSVK | GQVAGTFDV | -0.04 / -0.68 / -0.55 / -0.26 / -0.27 / -0.32 | -0.36 | 0/18 |
| GFDLNEYGIS | VIYADGQRTAYTDSVK | GENAGTFDV | -1.12 / 0.17 / -0.69 / -0.90 / -0.87 / -0.92 | -0.72 | 0/18 |
| GFDLNEYGIS | VIYADGMRTAYADTVK | GQNAGTFDV | -0.03 / -0.12 / 0.01 / -0.44 / -0.13 / 0.18 | -0.09 | 0/18 |
| GFDLDEYGIS | VIYADGKRTAYADNVK | GEVAGTFDL | -0.06 / -0.51 / -0.87 / -0.68 / -0.81 / -0.04 | -0.50 | 0/18 |
| GFDLDEYGIS | VIYADGMRTFYADSVK | GENAGTFDV | 0.46 / -0.26 / 0.07 / -0.15 / -0.20 / -0.30 | -0.06 | 0/18 |
| GFDLDEYGIS | VIYADGMRTAYADNVK | GENAGTFDL | 0.37 / -0.13 / 0.00 / -0.26 / 0.09 / 0.48 | 0.09 | 0/18 |
| GFDLNEYGIS | VIYADGMRTAYTDSVK | GSNAGTFDM | -0.12 / 0.16 / -0.16 / 0.28 / -0.07 / 0.45 | 0.09 | 0/18 |
| GFDLDEYGIS | VIYADGRRTAYTDSVK | GQNAGTFDV | 0.17 / -0.73 / -0.94 / -1.34 / -0.66 / -0.72 | -0.70 | 0/18 |
| GFDLEEYGIS | VIYADGMRTAYSDSVK | GQNAGTFDV | 0.28 / -0.12 / -0.17 / -0.04 / -0.23 / 0.12 | -0.02 | 0/18 |
| GFDLNEYGIS | VIYADGMRTAYADSVK | GNVAGTFDT | -0.61 / -0.48 / -0.52 / -0.82 / -0.80 / -0.68 | -0.65 | 0/18 |
| GFDLNEYGIS | VIYADGSRTVYADSVK | GNQAGTFDV | -0.18 / -0.25 / -0.23 / -0.32 / 0.02 / -0.15 | -0.18 | 0/18 |
| GFDLNEYGIS | VIYADGKRTAYADSVK | GEVAGTFDQ | -1.60 / -1.70 / -2.31 / -2.77 / -1.89 / -2.78 | -2.18 | 0/18 |
| GFDLNEYGIS | VIYADGMRTFYADDVK | GANAGTFDV | 0.00 / 0.05 / -0.50 / -0.19 / -0.22 / -0.12 | -0.16 | 0/18 |
| GFDLNEYGIS | VIYADGQRTAYADDVK | GETAGTFDV | -0.29 / -0.24 / -0.39 / -0.57 / -0.79 / -0.25 | -0.42 | 1/18 (1.70) |
| GFDLNEYGIS | VIYADGKRTAYANSVK | GETAGTFDV | -0.26 / -0.37 / -0.64 / -0.45 / -0.55 / -0.24 | -0.42 | 0/18 |
| GFDLNEYGIS | VIYADGKRTAYANSVK | GNVAGTFDI | -0.20 / -0.41 / -0.22 / -0.12 / -0.46 / -0.34 | -0.29 | 1/18 (2.82) |
| GFDLDEYGIS | VIYADGQRTAYSDSVK | GNTAGTFDV | -1.41 / n.d. / n.d. / -0.84 / -1.06 / -1.59 | -1.22 | 0/18 |
| GFDLNEYGIS | VIYADGKRTAYQDSVK | GNQAGTFDV | -0.46 / 0.05 / 0.63 / 0.07 / -0.28 / 0.14 | 0.02 | 0/18 |
| GFDLNEYGIS | VIYADGVRTYYADSVK | GNVAGTFDM | -0.02 / -0.21 / -0.55 / -0.69 / -0.38 / -0.30 | -0.36 | 1/18 (3.44) |
| GFDLNEYGIS | VIYADGQRTAYVDSVK | GEVAGTFDV | -0.41 / -0.50 / -0.44 / -0.43 / -0.58 / -0.53 | -0.48 | 0/18 |
| GFDLDEYGIS | VIYADGMRTAYTDSVK | GETAGTFDQ | -0.35 / -0.27 / 0.07 / 0.52 / 0.11 / 0.03 | 0.02 | 0/18 |
| GFDLDEYGIS | VIYADGMRTAYADSVK | GQVAGTFDI | -1.42 / -0.82 / -1.21 / -1.42 / -1.36 / -0.92 | -1.19 | 0/18 |
| GFNLDEYGIS | VIYADGMRTAYADSVK | GEVAGTFDM | -0.30 / 0.05 / -0.36 / -0.23 / -0.40 / -0.12 | -0.23 | 1/18 (2.18) |
| GFDLNEYGIS | VIYADGQRTAYSDSVK | GGNAGTFDV | -0.86 / -0.83 / -0.90 / -0.35 / -0.51 / -0.37 | -0.63 | 1/18 (1.88) |
| GFDLNEYGIS | VIYADGVRTAYSDDVK | GNNAGTFDV | -0.60 / -0.43 / -0.67 / -0.49 / -0.36 / 0.25 | -0.38 | 0/18 |
| GFDLNEYGIS | VIYADGKRTAYADNVK | GNVAGTFDT | -0.40 / -0.18 / -0.67 / -0.36 / -0.48 / 0.02 | -0.34 | 0/18 |
| GFDLDEYGIS | VIYADGRRTAYADDVK | GENAGTFDV | 0.54 / 0.71 / -0.29 / 0.20 / -0.25 / 0.30 | 0.20 | 0/18 |
| GFDLDEYGIS | VIYADGMRTAYADKVK | GEVAGTFDL | n.d. / 2.72 / n.d. / n.d. / n.d. / n.d. | 2.72 | 0/18 |
| GFDLDEYGIS | VIYADGRRTAYTDSVK | GNVAGTFDQ | -0.29 / -0.22 / -0.62 / -0.53 / -0.48 / -0.03 | -0.36 | 0/18 |
| GFDLEDYGIS | VIYADGKRTAYADSVK | GNVAGTFDQ | -0.47 / -0.73 / 0.65 / -0.51 / -0.42 / -0.12 | -0.27 | 0/18 |
| GFDLNEYGIS | VIYADGVRTAYVDSVK | GNVAGTFDQ | -0.17 / -0.10 / -0.46 / -0.08 / -0.25 / -0.27 | -0.22 | 0/18 |
| GFDLNEYGIS | VIYADGVRTAYADSVK | GTNAGTFDQ | -0.36 / 0.12 / 0.89 / 0.54 / -0.48 / -0.46 | 0.04 | 0/18 |
| GFDLNEYGIS | VIYADGVRTAYSDSVK | GGNAGTFDM | -1.06 / -0.57 / -0.93 / -1.21 / -1.12 / -0.50 | -0.90 | 1/18 (2.18) |
| GFDLNEYGIS | VIYADGMRTAYADNVK | GNTAGTFDV | -0.42 / -0.56 / -0.87 / -0.67 / -0.93 / -0.73 | -0.70 | 0/18 |
| GFDLNEYGIS | VIYADGMRTAYIDDVK | GNQAGTFDV | -0.27 / -0.51 / -0.39 / -0.43 / -0.19 / -0.09 | -0.31 | 0/18 |
| GFDLNEYGIS | VIYADGVRTSYADDVK | GNVAGTFDL | -0.09 / -0.21 / -0.42 / -0.46 / -0.49 / -0.34 | -0.33 | 1/18 (2.44) |
| GFDLNEYGIS | VIYADGVRTAYADSVK | GTNAGTFDV | -1.01 / -0.32 / -0.83 / -0.72 / -0.12 / -0.71 | -0.62 | 0/18 |
| GFDLNEYGIS | VIYADGLRTAYSDSVK | GNTAGTFDV | -0.07 / -0.73 / 0.19 / -0.33 / -0.58 / 0.01 | -0.25 | 0/18 |
| GFDLDEYGIS | VIYADGMRTYYADSVK | GNVAGTFDL | n.d. / 0.12 / 2.26 / 0.53 / n.d. / 0.42 | 0.83 | 0/18 |
| GFDLNEYGIS | VIYADGKRKAYADSVK | GNVAGTFDI | -0.21 / -0.44 / -0.53 / -0.37 / -0.53 / -0.23 | -0.38 | 0/18 |
| GFDLNEYGIS | VIYADGMRTAYADNVK | GQVAGTFDT | n.d. / 3.38 / 3.14 / n.d. / n.d. / n.d. | 3.26 | 1/18 (2.68) |
| GFDLNEYGIS | VIYADGQRTAYSDSVK | GNQAGTFDV | -0.52 / -0.41 / -0.69 / -0.60 / -0.45 / -0.22 | -0.48 | 1/18 (2.66) |
| GFDLNEYGIS | VIYADGRRTAYADDVK | GQVAGTFDV | -0.83 / -0.82 / -1.12 / -0.94 / -1.04 / -0.77 | -0.92 | 0/18 |
| GFDLNEYGIS | VIYADGMRTAYTDSVK | GNIAGTFDV | -0.62 / -0.63 / -0.43 / -0.34 / -0.55 / -0.53 | -0.52 | 0/18 |
| GFDLNEYGIS | VIYADGLRTAYADSVK | GENAGTFDQ | 0.28 / -0.22 / 0.09 / -0.27 / 0.21 / 0.24 | 0.05 | 1/18 (2.04) |

4 of these entries, quoted again:

| CDR-H1 | CDR-H2 | CDR-H3 | log10 Kd (nM) by replicate | log10 Kd (nM), mean | empty controls |
|---|---|---|---|---|---|
| GFDLNEYGIS | VIYADGLRTAYADSVK | GENAGTFDQ | 0.28 / -0.22 / 0.09 / -0.27 / 0.21 / 0.24 | 0.05 | 1/18 (2.04) |
| GFDLNEYGIS | VIYADGVRTSYADDVK | GNVAGTFDL | -0.09 / -0.21 / -0.42 / -0.46 / -0.49 / -0.34 | -0.33 | 1/18 (2.44) |
| GFDLNEYGIS | VIYADGMRTAYTDSVK | GSNAGTFDM | -0.12 / 0.16 / -0.16 / 0.28 / -0.07 / 0.45 | 0.09 | 0/18 |
| GFDLNEYGIS | VIYADGMRTAYADNVK | GNTAGTFDV | -0.42 / -0.56 / -0.87 / -0.67 / -0.93 / -0.73 | -0.70 | 0/18 |